## Cyclic peptide permeability, from CycPeptMPDB

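Lipid, pH, incubation time, direction and concentration are not recorded in the data file. The list need not hold all peptides of the study. Peptides that the database sets to -10, its floor, are left out.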

PAMPA is the parallel artificial membrane permeability assay, which has no cells and reads passive diffusion.
RRCK is a low-efflux MDCK cell line.
EPSA is the experimental polar surface area, a chromatographic measure of exposed polarity.
Permeability is given as log10 of P in cm/s; higher (less negative) is more permeable.
A value with < or ≤ is an upper limit.

{"smiles": "CCCC[C@@H]1NC(=O)[C@H](CCCC)NC(=O)[C@H](CCCC)N(C)C(=O)[C@H](CCCC)NC(=O)[C@H](CCCC)N(C)C(=O)[C@H](CCCC)NC(=O)[C@@H](Cc2ccccc2)N(C)C(=O)CSC[C@@H](C(=O)NC)NC1=O", "RRCK (log10 cm/s)": "< -6.46", "EPSA (Å2)": "73"}
{"smiles": "CCCC[C@@H]1NC(=O)[C@@H](Cc2ccccc2)NC(=O)CSC[C@@H](C(=O)NC)NC(=O)[C@H](CCCC)NC(=O)[C@@H]2CCCN2C(=O)[C@H](CCCC)NC1=O", "PAMPA (log10 cm/s)": "-5.80"}
{"smiles": "CCCC[C@@H]1NC(=O)[C@H](CCCC)NC(=O)[C@H](CCCC)NC(=O)[C@H](CCCC)NC(=O)[C@@H](Cc2ccccc2)NC(=O)CSC[C@@H](C(=O)NC)NC1=O", "PAMPA (log10 cm/s)": "< -6.00", "RRCK (log10 cm/s)": "-6.40", "EPSA (Å2)": "107"}
{"smiles": "CCCC[C@@H]1NC(=O)[C@H](CCCC)N(C)C(=O)[C@@H]2CCCN2C(=O)[C@H](CCCC)N(C)C(=O)[C@H](Cc2ccccc2)NC(=O)CSC[C@@H](C(=O)NC)NC(=O)[C@H](CCCC)N(C)C1=O", "PAMPA (log10 cm/s)": "-4.00", "EPSA (Å2)": "69"}
{"smiles": "CCCC[C@@H]1NC(=O)[C@H](Cc2ccccc2)NC(=O)CSC[C@@H](C(=O)NC)NC(=O)[C@H](CCCC)NC(=O)[C@@H]2CCCN2C(=O)[C@H](CCCC)NC1=O", "PAMPA (log10 cm/s)": "-5.90"}
{"smiles": "CCCC[C@@H]1NC(=O)[C@H](CCCC)N(C)C(=O)[C@H](Cc2ccccc2)N(C)C(=O)CSC[C@@H](C(=O)NC)NC(=O)[C@@H]2CCCN2C(=O)[C@H](CCCC)N(C)C1=O", "PAMPA (log10 cm/s)": "-5.50"}
{"smiles": "CCCC[C@@H]1NC(=O)[C@H](Cc2ccccc2)N(C)C(=O)[C@@H]2CCCN2C(=O)[C@H](CCCC)N(C)C(=O)[C@H](Cc2ccccc2)NC(=O)CSC[C@@H](C(=O)NC)NC(=O)[C@H](CCCC)N(C)C1=O", "PAMPA (log10 cm/s)": "-4.40", "EPSA (Å2)": "81"}
{"smiles": "CCCC[C@@H]1NC(=O)[C@H](Cc2ccccc2)NC(=O)CSC[C@@H](C(=O)NC)NC(=O)[C@@H]2CCCN2C(=O)[C@H](CCCC)NC(=O)[C@H](CCCC)NC1=O", "PAMPA (log10 cm/s)": "< -6.70"}
{"smiles": "CCCC[C@@H]1NC(=O)[C@@H](Cc2ccccc2)NC(=O)CSC[C@@H](C(=O)NC)NC(=O)[C@@H]2CCCN2C(=O)[C@H](CCCC)N(C)C(=O)[C@H](CCCC)NC1=O", "PAMPA (log10 cm/s)": "< -5.60"}
{"smiles": "CCCC[C@@H]1NC(=O)[C@H](CCCC)N(C)C(=O)[C@H](CCCC)NC(=O)[C@H](CCCC)N(C)C(=O)[C@H](CCCC)NC(=O)[C@@H](Cc2ccccc2)N(C)C(=O)CSC[C@@H](C(=O)NC)NC(=O)[C@H](Cc2ccccc2)NC1=O", "RRCK (log10 cm/s)": "< -6.46", "EPSA (Å2)": "85"}
{"smiles": "CCCC[C@@H]1NC(=O)[C@H](CCCC)NC(=O)[C@@H](Cc2ccccc2)NC(=O)CSC[C@@H](C(=O)NC)NC(=O)[C@@H]2CCCN2C(=O)[C@H](CCCC)NC1=O", "PAMPA (log10 cm/s)": "< -6.70"}
{"smiles": "CCCC[C@@H]1NC(=O)[C@H](CCCC)NC(=O)[C@H](CCCC)NC(=O)[C@@H]2CCCN2C(=O)[C@H](CCCC)NC(=O)[C@H](Cc2ccccc2)NC(=O)CSC[C@@H](C(=O)NC)NC1=O", "PAMPA (log10 cm/s)": "-6.20", "RRCK (log10 cm/s)": "-6.70", "EPSA (Å2)": "91"}
{"smiles": "CCCC[C@@H]1NC(=O)[C@H](CCCC)N(C)C(=O)[C@H](CCCC)NC(=O)[C@H](CCCC)N(C)C(=O)[C@H]([C@@H](C)O)NC(=O)[C@@H](Cc2ccccc2)N(C)C(=O)CSC[C@@H](C(=O)NC)NC(=O)[C@H](Cc2ccccc2)NC1=O", "RRCK (log10 cm/s)": "< -6.46", "EPSA (Å2)": "86"}
{"smiles": "CCCC[C@@H]1NC(=O)[C@H](Cc2ccccc2)NC(=O)CSC[C@@H](C(=O)NC)NC(=O)[C@H](CCCC)NC(=O)[C@H](CCCC)NC(=O)[C@H](CCCC)NC1=O", "PAMPA (log10 cm/s)": "< -5.90", "RRCK (log10 cm/s)": "-6.22", "EPSA (Å2)": "105"}

The last 2 entries again:

{"smiles": "CCCC[C@@H]1NC(=O)[C@H](CCCC)N(C)C(=O)[C@H](CCCC)NC(=O)[C@H](CCCC)N(C)C(=O)[C@H]([C@@H](C)O)NC(=O)[C@@H](Cc2ccccc2)N(C)C(=O)CSC[C@@H](C(=O)NC)NC(=O)[C@H](Cc2ccccc2)NC1=O", "RRCK (log10 cm/s)": "< -6.46", "EPSA (Å2)": "86"}
{"smiles": "CCCC[C@@H]1NC(=O)[C@H](Cc2ccccc2)NC(=O)CSC[C@@H](C(=O)NC)NC(=O)[C@H](CCCC)NC(=O)[C@H](CCCC)NC(=O)[C@H](CCCC)NC1=O", "PAMPA (log10 cm/s)": "< -5.90", "RRCK (log10 cm/s)": "-6.22", "EPSA (Å2)": "105"}

Collected by the curators of CycPeptMPDB (Li et al. 2023) from Golosov et al. 2021, doi:10.1021/acs.jmedchem.0c01505.